Results taken from ChEMBL document CHEMBL1138930, “Discovery of novel triazole-based opioid receptor antagonists” (J Med Chem, 2006).

Assays:
[1] = system: Delta (Mus musculus) and kappa (Rattus norvegicus) opioid receptors; assay: Selectivity for delta opioid receptor over kappa opioid receptor
[2] = system: Delta and mu opioid receptors (Mus musculus); assay: Selectivity for delta opioid receptor over mu opioid receptor
[3] = molecular target: Delta-type opioid receptor (Mus musculus) (UniProt P32300); assay: Inhibition of (-)-[9-3H]bremazocine binding to delta opioid receptor at 10 uM
[4] = molecular target: Delta-type opioid receptor (Mus musculus) (UniProt P32300); assay: Inhibition of (-)-[9-3H]bremazocine binding to delta opioid receptor expressed in HEK293 cells

`CN(C)CCc1nnc(-c2ccc(C(C)(C)C)cc2)n1-c1cccc(O)c1` showed a Selectivity ratio [1] of over 11.1 and a Selectivity ratio [2] of over 11.1.
`CN(C)Cc1nnc(-c2ccc(C(C)(C)C)cc2)n1-c1cccc(O)c1` gave an inhibition [3] of 88% and a Ki [4] of 460 nM.
With `CN(C)c1nnc(-c2cccc(C(C)(C)C)c2)n1-c1cccc(O)c1` the Selectivity ratio [1] was over 9.5 and the Selectivity ratio [2] was over 9.5.
`Oc1cccc(-n2cnnc2-c2ccc(-c3ccccc3)cc2)c1` showed a Selectivity ratio [1] of over 6.66 and a Selectivity ratio [2] of over 6.66.
With `CN(C)c1nnc(-c2ccc(-c3ccccc3)cc2)n1-c1cccc(O)c1` the Selectivity ratio [1] was over 76.9 and the Selectivity ratio [2] was over 76.9.
